Measured values taken from US20220380338A1, “CYCLOALKYL 3-OXOPIPERAZINE CARBOXAMIDES AND CYCLOHETEROALKYL 3-OXOPIPERAZINE CARBOXAMIDES AS NAV1.8 INHIBITORS” (Merck Sharp & Dohme LLC, priority 2021, published 2022).

By UniProt entry, the sequences of proteins in these tests, tags left out.
UniProt Q9Y5Y9, whole entry: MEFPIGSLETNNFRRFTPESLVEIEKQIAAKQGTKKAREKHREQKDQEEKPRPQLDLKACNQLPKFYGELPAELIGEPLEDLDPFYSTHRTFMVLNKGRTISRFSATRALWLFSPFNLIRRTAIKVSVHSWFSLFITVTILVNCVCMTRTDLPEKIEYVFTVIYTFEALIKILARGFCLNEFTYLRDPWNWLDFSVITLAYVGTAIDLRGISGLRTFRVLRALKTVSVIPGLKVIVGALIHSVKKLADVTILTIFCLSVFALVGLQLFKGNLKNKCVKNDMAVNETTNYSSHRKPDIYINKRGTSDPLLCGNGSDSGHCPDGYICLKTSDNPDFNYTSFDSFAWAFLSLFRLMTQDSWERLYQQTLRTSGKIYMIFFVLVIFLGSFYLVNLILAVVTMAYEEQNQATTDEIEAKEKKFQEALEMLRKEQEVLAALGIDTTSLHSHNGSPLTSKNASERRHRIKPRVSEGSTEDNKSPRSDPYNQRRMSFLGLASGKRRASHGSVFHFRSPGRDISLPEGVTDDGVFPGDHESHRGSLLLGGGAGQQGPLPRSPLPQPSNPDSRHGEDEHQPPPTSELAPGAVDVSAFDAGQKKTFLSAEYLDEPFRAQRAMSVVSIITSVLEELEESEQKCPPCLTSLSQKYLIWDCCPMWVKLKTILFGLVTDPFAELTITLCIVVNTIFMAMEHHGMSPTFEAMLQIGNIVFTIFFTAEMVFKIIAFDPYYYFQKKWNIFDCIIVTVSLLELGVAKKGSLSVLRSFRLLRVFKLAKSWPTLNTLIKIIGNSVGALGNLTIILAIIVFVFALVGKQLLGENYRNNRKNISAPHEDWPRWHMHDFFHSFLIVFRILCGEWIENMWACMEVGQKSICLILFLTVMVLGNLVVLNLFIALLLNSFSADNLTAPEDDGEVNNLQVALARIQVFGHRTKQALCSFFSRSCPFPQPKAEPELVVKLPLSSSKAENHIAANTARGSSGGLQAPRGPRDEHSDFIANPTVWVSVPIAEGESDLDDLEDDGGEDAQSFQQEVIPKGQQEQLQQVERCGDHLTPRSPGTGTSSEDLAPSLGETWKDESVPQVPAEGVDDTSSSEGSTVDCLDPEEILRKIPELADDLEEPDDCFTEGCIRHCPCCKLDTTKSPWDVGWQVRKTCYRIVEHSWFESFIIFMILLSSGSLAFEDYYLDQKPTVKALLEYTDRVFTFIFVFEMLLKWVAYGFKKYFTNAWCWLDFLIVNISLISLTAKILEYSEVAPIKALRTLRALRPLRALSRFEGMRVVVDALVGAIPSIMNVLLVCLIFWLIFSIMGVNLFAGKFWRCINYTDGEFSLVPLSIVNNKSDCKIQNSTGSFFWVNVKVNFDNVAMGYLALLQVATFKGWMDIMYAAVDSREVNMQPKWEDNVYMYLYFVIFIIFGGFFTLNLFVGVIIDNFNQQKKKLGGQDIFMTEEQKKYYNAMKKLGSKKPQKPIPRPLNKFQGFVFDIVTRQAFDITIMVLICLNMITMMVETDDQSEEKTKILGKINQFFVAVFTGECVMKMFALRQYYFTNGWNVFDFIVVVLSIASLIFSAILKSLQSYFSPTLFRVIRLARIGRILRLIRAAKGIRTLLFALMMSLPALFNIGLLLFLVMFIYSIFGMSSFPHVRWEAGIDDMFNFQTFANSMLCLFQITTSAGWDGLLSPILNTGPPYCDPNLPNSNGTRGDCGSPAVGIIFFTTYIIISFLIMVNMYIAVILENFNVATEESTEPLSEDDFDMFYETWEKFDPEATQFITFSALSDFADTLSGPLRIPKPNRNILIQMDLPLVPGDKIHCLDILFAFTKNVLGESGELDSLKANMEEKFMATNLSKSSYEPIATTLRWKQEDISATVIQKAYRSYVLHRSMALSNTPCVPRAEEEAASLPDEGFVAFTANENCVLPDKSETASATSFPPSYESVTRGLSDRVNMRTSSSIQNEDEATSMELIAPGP

Target: human NaV1.8 (Homo sapiens, UniProt Q9Y5Y9)
Experiment: Nav1.8 Qube® Assay (automated 384-well patch-clamp, inhibition of sodium current)
Settings: human NaV1.8 channels stably expressed in HEK 293 cells, room temperature
Experimental: Compounds were tested on human NaV1.8 and NaV1.5 channels stably expressed in human embryo kidney (HEK) 293 cells. Sodium current measurements on Qube® were conducted as follows: automated 384-well patch-clamp assays on the Qube® platform (Sophion Biosciences) were used to measure the inhibition of sodium flow through human NaV1.8 and NaV1.5 channels. Whole-cell voltage-clamp recordings were performed in QChips® (Sophion Biosciences) at room temperature. NaV1.8 current measurements on Qube® were obtained as follows: NaV1.8 currents were elicited with a 10 second 1 Hertz (Hz) pulse train from a holding potential of −90 millivolts (mV), delivered to the cells once per minute in the control condition (DMSO only) and after compound addition. The 1 hertz pulse train stimulation consisted of ten test pulses to 10 millivolt (mV) for 20 milliseconds (ms), each of which was followed by a 980 millisecond repolarization to −67 millivolts. At the end of the 10 second pulse train stimulation, a 5 second hyperpolarization step to −100 millivolt (mV) was used to recover NaV1.8 from fast inactivation. […]
For all Qube® experiments offline analysis was used to determine percent inhibition as a function of drug concentration. IC50 values were determined by fitting to the Hill equation.

Row | Compound | IC50 [nM]
1 | CC1(C)CC(C(NC(=O)N2CCNC(=O)C2)c2ccc(F)c(Cl)c2F)C1 (single isomer, unassigned) [32A] | 571
2 | CC1(C)CC(C(NC(=O)N2CCNC(=O)C2)c2ccc(F)c(Cl)c2F)C1 (single isomer, unassigned) [32B] | 3.93
